Assay results taken from patent US20240139185A1, “COMPOUNDS THAT PARTICIPATE IN COOPERATIVE BINDING AND USES THEREOF” (Revolution Medicines, Inc., priority 2018, published 2024).

Tests used:
[1] = target: cyclophilin A (CYPA) (Homo sapiens, UniProt P62937); assay: CYPA-compound binary complex formation by SPR; details: read-out: CYPA Binding Affinity
Method: In order to determine the affinity of compounds of the invention for cyclophilin A (CYPA), we employed surface plasmon resonance binding analysis using the following reagents, instruments and protocol as supplied by the instrument manufacturer.
Reagents and Instrument • 1. Instrument: Biacore S200 (GE Healthcare Life Sciences) • 2. Running buffer: 1×HBS-P+ (1×HBS supplemented with 0.05% Tween20), pH7.4, and 2% DMSO. • 3. Ligand: CypA-Avi • 4. Analyte: Serial dilution of WDB compounds from 50 μM to 0 μM, 2-fold dilution, 10 points (10 mM stock concentration). • 5. Sensor kit: Biotin CAPture Kit (BR28-9202-34, GE Healthcare Life Sciences) • 6. Regeneration buffer: 1 volume of 1 M NaOH and 3 volumes of 8 M guanidine hydrochloride (supplied with CAPture Kit, BR28-9202-34, GE Healthcare Life Sciences)
Experimental Procedure • 1. Capture of CAPreagent: 2 μl/min for 60 seconds. • 2. Immobilization of ligand CypA: Use Fc1 as the reference cell; immobilize CypA at 4 μg/ml using 5 μl/min flowrate on Fc2 (60s), Fc3 (80s) and Fc4 (80s), respectively. • 3. Binding of analytes: Inject WDB compound dilutions sequentially at 50 μl/min for association of 60 seconds. And then let it dissociates in buffer at 50 μl/min for 60 seconds. • 4. Regeneration: 2 injections of regeneration buffer at 30 μl/min for 60 seconds to regenerate the chip surface. • 5. Solvent correction: Run solvent correction at beginning and the end of the run. If run more than 6 compounds, add additional solvent correction every 6 compounds. • 6. Data fitting with built-in Biacore Evaluation Software: Steady-state fitting.

[2] = system: pERK in H358 cells; assay: pERK inhibition in H358 cells; details: read-out: Cellular pERK inhibition, 4 hours treatment
Method: H358 cells (5500 cells) derived from a human lung cancer were plated in a 96 well plate in media (100 uL, RPMI with 10% FBS). After 24 hours, cells were treated for 4 hours with compound or DMSO. Cells were washed twice with room temperature TBS (200 uL) and fixed for 20 minutes with 4% paraformaldehyde diluted with TBS (150 uL). Cells were washed four times for five minutes with 0.1% TritonX/TBS (150 uL) to permeabilize the membrane. Cells were incubated with TBS blocking buffer (100 uL) at room temperature for 60 minutes. Primary antibody (Phospho-p44/42 MAPK (Erk1/2) (Thr202/Tyr204) (D13.14.4E) XP® Rabbit mAb #4370, Cell Signaling Technology; 1:200) was added, and the cells were incubated overnight at 4 C. The cells were washed four times for five minutes with 0.1% Tween 20/TBS (150 uL). Secondary antibody (IRDye® 800CW Goat-Anti-Rabbit IgG, Li-Cor Biosciences; 1:1000) and DRAQ5™ (Invitrogen; 1:2000) was added, and the cells were incubated for 1 hour at room temperature. The cells were washed four times for five minutes with 0.1% Tween 20/TBS (150 uL) and scanned using the LICOR (700 and 800 nm).

[3] = target: BRAF-GTP-KRAS-G12C complex (Homo sapiens, UniProt P01116+P62937, G12C); assay: KRAS-BRAF complex disruption through competition with CYPA-compound by TR-FRET; details: read-out: BRAF-GTP-KRAS-G12C Disruption; biochemical BRAF-KRAS G12C-GTP disruption assay EC50, with CYPA
Method: In this example, TR-FRET was used to measure the compound-facilitated disruption of a KRAS-BRAF complex. A mixture of tagless Cyclophilin A, His6-KRAS G12C-GMP-PNP, and GST-BRAF RAS binding domain was added to a 384-well assay plate containing compounds of the invention and incubated for 3 hours. A mixture of Anti-His Eu-W1024 and anti-GST allophycocyanin was then added and the reaction was incubated for an additional 1.5 hours. TR-FRET signal was read on an EnVision microplate reader (Perkin Elmer, Ex 320 nm, Em 665/615 nm). Compounds that facilitate disruption of a KRAS_BRAF complex were identified as those eliciting a decrease in the TR-FRET ratio relative to DMSO control wells. To determine the presenter-dependence of the compound-mediated KRAS-BRAF complex disruption, Cyclophilin A was left out of the initial incubation (see Table 5). To determine G12C specificity of the compound-mediated KRAS-BRAF complex disruption, wild-type KRAS was used instead of G12C KRAS (see Table 5).
Reagents and Instrument • Tagless CYPA; 519 μM in PBS buffer, pH 7.4 • GST BRAF; 110 μM in PBS buffer, pH 7.4 • His6-KRASG12C-GMP-PNP; 50 μM in PBS buffer, pH 7.4 • His6-KRASWT-GMP-PNP; 40 μM in PBS buffer, pH 7.4 • Anti-His Eu-W1024 (LANCE® Eu-W1024; Perkin Elmer) • Anti-GST allophycocyanin (Anti-GST IgG conjugated to SureLight®-Allophycocyanin; Perkin Elmer; Product Number AD0059G) • Test compounds, 10 mM in 100% DMSO • EnVision (Perkin Elmer) • Combi MultiDrop liquid dispenser with 8-channel small volume cassette • 384-well ProxiPlate (black)
Experimental Protocol • 1. Use Mosquito to dispense 100 nL/well of compounds (varying concentration in […]) into 384-well black ProxiPlate to make assay-ready-plate (ARP). • 2. Make assay buffer containing 25 mM Hepes pH 7.3, 100 mM NaCl, 5 mM MgCl2, 0.05% BSA, and 0.002% Tween-20. • 3. Make PRE-MIX A: delivers final concentrations of 50 nM of His6-KRas G12C-GTP (1-169) and 500 nM of tagless CypA (1-165) in assay buffer. • a. For presenter dependence experiments, omit addition of tagless CypA • b. For G12C/wt specificity experiments, substitute His6-KRas WT-GTP (1-169) for His6-KRas G12C-GTP (1-169) • 4. Use MultiDrop Combi to dispense PRE-MIX A into ARP, 7 μl/well. Incubate 3 hr at room temperature. • 5. Make PRE-MIX B: delivers final concentrations of 10 nM of anti-His Eu-W1024 and 50 nM of anti-GST APC. • 6. Use MultiDrop Combi to dispense PRE-MIX B into ARP, 3 μl/well. Shake briefly on Combi and incubate 1.5 hr at room temperature. • 7. Read on EnVision (Ex: 320 nm; Em1: 615 nm; Em2: 665 nm). • 8. Data is processed using Dotmatics. Curves are fit using a 4-parameter non-linear fit to determine the EC50 value for formation of the ternary complex.

Row | SMILES | Kd [1] [µM] | IC50 [2] [µM] | EC50 [3] [µM]
1 | COCC1(C)CN2C[C@H](C)COC(=O)[C@@H]3CCCN(N3)C(=O)[C@@H](NC(=O)[C@H](C(C)C)N(C)C(=O)C3CN(C(=O)CCl)C3)Cc3cc(O)cc(c3)-c3ccc1c2c3 (some centres unmarked) | < 5 | < 1 | –
2 | CC(C)[C@@H](C(=O)N[C@H]1Cc2cc(O)cc(c2)-c2ccc3c(C(C)(C)C#N)cn(c3c2)CC(C)(C)COC(=O)[C@@H]2CCCN(N2)C1=O)N1CCC2(CCN(C(=O)CCl)C2)C1=O (some centres unmarked) | 5 to 15 | < 1 | –
3 | C=CC(=O)N1CCC(F)(C(=O)N(C)[C@H](C(=O)N[C@H]2Cc3cc(O)cc(c3)-c3ccc4c(C(C)(C)C#N)cn(c4c3)CC(C)(C)COC(=O)[C@@H]3CCCN(N3)C2=O)C(C)C)C1 (some centres unmarked) | 5 to 15 | > 10 | –
4 | CC(C)[C@@H](C(=O)N[C@H]1Cc2cc(O)cc(c2)-c2ccc3c(-c4cccc5ncoc45)cn(c3c2)CC(C)(C)COC(=O)[C@@H]2CCCN(N2)C1=O)N(C)C(=O)C1CN(C(=O)[C@@H](C)Cl)C1 | – | > 10 | 0.5 to 5
5 | C=CC(=O)N1CCC2(CCN([C@H](C(=O)N[C@H]3Cc4cc(O)cc(c4)-c4ccc5c(C(C)(C)C#N)cn(c5c4)CC(C)(C)COC(=O)[C@@H]4CCCN(N4)C3=O)C(C)C)C2=O)C1 (some centres unmarked) | 5 to 15 | 1 to 10 | –
6 | CC1COC(=O)[C@@H]2CCCN(N2)C(=O)[C@@H](NC(=O)[C@H](C(C)C)N(C)C(=O)C2CN(C(=O)[C@@H](C)Cl)C2)Cc2cc(O)cc(c2)-c2ccc3c(c2)c(cn3C(C)(C)C#N)C1 (single isomer, unassigned) [310] | – | 1 to 10 | > 5
7 | CC1COC(=O)[C@@H]2CCCN(N2)C(=O)[C@@H](NC(=O)[C@H](C(C)C)N(C)C(=O)C2CN(C(=O)[C@@H](C)Cl)C2)Cc2cc(O)cc(c2)-c2ccc3c(c2)c(cn3C(C)(C)C#N)C1 (single isomer, unassigned) [311] | – | > 10 | > 5
8 | C=CC(=O)N1CC[C@H](C(=O)N(C)[C@H](C(=O)N[C@H]2Cc3cc(O)cc(c3)-c3ccc4c(-c5cccc(C(=O)OC)c5)cn(c4c3)CC(C)(C)COC(=O)[C@@H]3CCCN(N3)C2=O)C(C)C)C1 | – | > 10 | > 5
9 | C=CC(=O)N1CC[C@H](C(=O)N(C)[C@H](C(=O)N[C@H]2Cc3cc(O)cc(c3)-c3ccc4c(c3)c(cn4-c3c(Br)cccc3C#N)CC(C)COC(=O)[C@@H]3CCCN(N3)C2=O)C(C)C)C1 (single isomer, unassigned) [383] | – | > 10 | 0.5 to 5
10 | CC(C)[C@@H](C(=O)N[C@H]1Cc2cc(O)cc(c2)-c2ccc3c(C(C)(C)C#N)cn(c3c2)CC(C)(C)COC(=O)[C@@H]2CCCN(N2)C1=O)N(C)C(=O)C1CCN(C(=O)[C@H](C)Cl)CC1 | – | > 10 | > 5
11 | C=CC(=O)N1CC[C@H](C(=O)N(C)[C@H](C(=O)N[C@H]2Cc3cc(O)cc(c3)-c3ccc4c(c3)c(c(C#N)n4CC)CC(C)COC(=O)[C@@H]3CCCN(N3)C2=O)C(C)C)C1 (single isomer, unassigned) [373] | – | 1 to 10 | > 5
12 | C=CC(=O)N1CC[C@H](C(=O)N(C)[C@H](C(=O)N[C@H]2Cc3cc(O)cc(c3)-c3ccc4c(c3)c(c(C#N)n4CC)CC(C)COC(=O)[C@@H]3CCCN(N3)C2=O)C(C)C)C1 (single isomer, unassigned) [372] | – | < 1 | 0.5 to 5
13 | C=CC(=O)N1CC[C@H](C(=O)N(C)[C@H](C(=O)N[C@H]2Cc3cc(O)cc(c3)-c3ccc4c(c3)N(CC(C)(C)COC(=O)[C@@H]3CCCN(N3)C2=O)CC4(C)C#Cc2cccnc2)C(C)C)C1 (single isomer, unassigned) | – | > 10 | > 5
14 | CC(C)[C@@H](C(=O)N[C@H]1Cc2cc(O)cc(c2)-c2ccc3cc(Cc4cccnc4)n(c3c2)C[C@H](C)COC(=O)[C@@H]2CCCN(N2)C1=O)N(C)C(=O)C1CN(C(=O)CCl)C1 | – | > 10 | < 0.5
15 | CC(C)[C@@H](C(=O)N[C@H]1Cc2cc(O)cc(c2)-c2ccc3ccn(c3c2F)C[C@H](C)CNC(=O)[C@@H]2CCCN(N2)C1=O)N(C)C(=O)C1CN(C(=O)CCl)C1 | – | > 10 | > 5
16 | CC(C)[C@@H](C(=O)N[C@H]1Cc2cc(O)cc(c2)-c2ccc3c(-c4ccccc4CC#N)cn(c3c2)CC(C)(C)COC(=O)[C@@H]2CCCN(N2)C1=O)N(C)C(=O)C1CN(C(=O)CCl)C1 | – | < 1 | < 0.5
17 | C=CC(=O)N1CCC2(CCCN([C@H](C(=O)N[C@H]3Cc4cc(O)cc(c4)-c4ccc5c(C(C)(C)C#N)cn(c5c4)CC(C)(C)COC(=O)[C@@H]4CCCN(N4)C3=O)C(C)C)C2=O)C1 (single isomer, unassigned) [360] | – | 1 to 10 | 0.5 to 5
18 | C=CC(=O)N1CC[C@H](C(=O)N(C)[C@H](C(=O)N[C@H]2Cc3cc(O)cc(c3)-c3ccc4c(-c5ccccc5C(=O)OC)cn(c4c3)CC(C)(C)COC(=O)[C@@H]3CCCN(N3)C2=O)C(C)C)C1 | – | 1 to 10 | 0.5 to 5
19 | CC(C)[C@@H](C(=O)N[C@H]1Cc2cc(O)cc(c2)-c2ccc3c(C(C)(C)C#N)cn(c3c2)CC(C)(C)COC(=O)[C@@H]2CCCN(N2)C1=O)N(C)C(=O)C1CCN(C(=O)[C@@H](C)Cl)CC1 | – | 1 to 10 | 0.5 to 5
